Binding of CDR-mutated scFvs to a peptide of the spike HR2 region

Target: peptide PDVDLGDISGINAS, taken from heptad repeat 2 (HR2) of SARS-CoV-2 spike.

Ab-91 is the parent antibody, in scFv form: VL, then a (GGGGS)3 linker, then VH. The light chain is unchanged in all variants.
VL: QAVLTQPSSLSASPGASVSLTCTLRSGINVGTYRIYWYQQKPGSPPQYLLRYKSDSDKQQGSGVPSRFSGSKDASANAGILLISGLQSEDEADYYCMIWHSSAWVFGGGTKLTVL
VH: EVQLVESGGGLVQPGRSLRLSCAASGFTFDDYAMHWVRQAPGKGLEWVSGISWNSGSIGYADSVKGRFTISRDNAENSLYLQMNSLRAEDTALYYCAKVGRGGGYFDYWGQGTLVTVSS

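Variants in AAYL51 differ from the parent at up to three CDR positions; double and triple changes were sampled at random. AlphaSeq pools MATa yeast showing the antibodies with MATalpha yeast showing the peptide. The frequency of each diploid, read from paired DNA barcodes, reflects how well the two displayed proteins bind. A regression on co-assayed BCL2-family reference pairs converts the normalised counts of each replicate to an apparent Kd. Each pool was mated in three replicate cultures.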

Positions count from residue 1 of the parent VH; T28D puts D in place of T. Affinities are written as log10 Kd with Kd in nM; a lower number is a better binder. Replicates are averaged; those with no signal do not enter the mean. An entry "n.d." has no value in the source: the pair was not observed among the diploids in that replicate. This suggests poor binding but is not conclusive.

changes | log10 Kd (nM) by replicate | mean, log10 nM | control signals
T28D+F29M+H35P | 2.32 3.54 3.06 | 2.97 | 0 of 9
Y60M+Y108D | 1.73 1.35 0.80 | 1.30 | 0 of 9
S55N+G56V+Y105Q | n.d. n.d. n.d. | n.d. | 0 of 9
F27M+V64H+Y108A | n.d. n.d. n.d. | n.d. | 0 of 9
S52C+Y60P | 4.51 n.d. 5.37 | 4.94 | 6 of 9 (4.57)
A33T+I51A+V99S | 4.23 n.d. n.d. | 4.23 | 3 of 9 (4.47)
Y60P+K65C+G103H | n.d. n.d. n.d. | n.d. | 1 of 9 (5.39)
A33T+N54E+I58Q | 1.20 1.55 0.83 | 1.19 | 2 of 9 (4.00)
D30M | 1.42 1.44 1.06 | 1.31 | 0 of 9
F27H+D62Y | n.d. n.d. n.d. | n.d. | 0 of 9
H35K+S57N+G103E | n.d. n.d. n.d. | n.d. | 0 of 9
W53R+D62M+F106D | 3.93 4.82 3.52 | 4.09 | 5 of 9 (4.26)
D31R | 0.72 0.79 -0.01 | 0.50 | 8 of 9 (5.01)
D30G+I58K+F106Y | 3.27 3.12 3.39 | 3.26 | 3 of 9 (4.71)
F29Q+S52N+G56L | n.d. n.d. n.d. | n.d. | 1 of 9 (4.43)
T28F | 4.85 4.87 n.d. | 4.86 | 0 of 9
F29V+N54G+S63T | n.d. n.d. n.d. | n.d. | 0 of 9
A61H+Y108Q | 1.00 0.90 0.37 | 0.76 | 4 of 9 (4.51)
N54T+G56M+V64K | 3.38 4.02 n.d. | 3.70 | 2 of 9 (3.75)
T28F+S63K+R101D | n.d. 5.45 n.d. | 5.45 | 3 of 9 (4.05)
Y32M+Y105Q | n.d. n.d. n.d. | n.d. | 3 of 9 (3.90)
M34Q+K65I+G102N | 5.80 4.80 5.08 | 5.23 | 7 of 9 (4.99)
D62C+D107K+Y108A | 5.21 n.d. n.d. | 5.21 | 0 of 9
D62E+G100D+Y108K | n.d. 4.92 4.70 | 4.81 | 3 of 9 (4.78)
S52V | n.d. 4.45 n.d. | 4.45 | 0 of 9
G50D+S57E+F106N | n.d. n.d. 3.91 | 3.91 | 0 of 9
S52V+V99E+Y105T | 4.58 n.d. n.d. | 4.58 | 4 of 9 (5.26)
I51N+K65A | 4.23 n.d. n.d. | 4.23 | 2 of 9 (4.38)
G50F+G59M+S63Y | 5.57 6.64 5.45 | 5.89 | 3 of 9 (4.82)
D31K | 1.57 1.28 0.75 | 1.20 | 4 of 9 (3.12)
T28M+M34W+K65D | n.d. 4.93 n.d. | 4.93 | 1 of 9 (3.98)

Picked from the list: the 2 lowest averages where every replicate gave a value.

| changes | log10 Kd (nM) by replicate | mean, log10 nM | control signals |
|---|---|---|---|
| D31R | 0.72 0.79 -0.01 | 0.50 | 8 of 9 (5.01) |
| A61H+Y108Q | 1.00 0.90 0.37 | 0.76 | 4 of 9 (4.51) |

As a blank, each scFv also met three strains without target: over library AAYL51, 21% of these pairings were detected, typically at 4.54 and seldom below 3.26. Also given: how often the same scFv was detected with the empty control strains, with their mean in brackets. Parent in this assay: reference entry 1.86, copy in this library 0.88.

The measurements come from Engelhart et al. 2022 (doi:10.1038/s41597-022-01779-4) through the FLAb antibody collection.